This note sets out measurements from ChEMBL document CHEMBL1138325, “Design, synthesis, in vitro, and in vivo characterization of phenylpiperazines and pyridinylpiperazines as potent and selective antagonists of the melanocortin-4 receptor” (J Med Chem, 2007).

The series deals with Caco-2. The series is described as follows: Ratio of permeability from basolateral to apical side over apical to basolateral side of Caco-2 cells. In kind it is ADME, cell-based. Particulars: human. (Caco-2 monolayers are a common model of the intestinal barrier.)

Regarding `Cc1ccc(N2CCN(C(=O)[C@H](C)Cc3ccc(Cl)cc3)CC2)c([C@@H](N)CC(C)C)c1`, the Ratio amounted to 4.4.
